Measurements: article PMC12251161, “Crucian Carp-Derived ACE-Inhibitory Peptides with In Vivo Antihypertensive Activity: Insights into Bioactivity, Mechanism, and Safety” (Molecules, 2025)

Tested on: bradykinin
Test: Bradykinin level in SHRs (ELISA)
Format: in vivo, spontaneously hypertensive rats (SHRs)
Settings: captopril 12 mg/kg oral, plasma, n = 6, model group 61.11 ± 5.07, normotensive control 92.45 ± 8.94

C[C@H](CS)C(=O)N1CCC[C@H]1C(=O)O [captopril]
BK concentration: 71.81 ± 5.87 pg/mL
